Patent US20250019381A1, “PROCESS FOR THE […] OF 6-((3S,4S)-4-METHYL-1-(PYRIMIDIN-2-[…])PYRROLIDIN-3-YL)-3-(TETRAHYDROPYRAN-4-YL-7H-IMIDAZO[1,5-a]PYRAZIN-8-ONE” (Cardurion Pharmaceuticals, Inc., priority 2017, published 2025)

Assay: Blood Brain Barrier penetration: plasma and brain concentration
Type: in vivo

In the case of `C[C@@H]1CN(Cc2ncccn2)C[C@H]1c1nc2c(cnn2C2CCOCC2)c(=O)[nH]1` (relative stereo), the “Plasma concentration after 30 minutes” value (30 min) is reported as 1230 ng/mL and the “Plasma concentration after 120 minutes” value (120 min) is reported as 529 ng/mL.
